The structures appear in SMILES notation. Numbering of substitutions follows the chain as printed.

Among the data in ChEMBL document CHEMBL4354866, “TREK Channel Family Activator with a Well-Defined Structure-Activation Relationship for Pain and Neurogenic Inflammation” (J Med Chem, 2020) are fold change (FC) values, retold here.

Assay [1] has as its system T1, Potassium channel subfamily K member 2 (Homo sapiens), O95069 [Y285A].
T1 sequence (whole entry): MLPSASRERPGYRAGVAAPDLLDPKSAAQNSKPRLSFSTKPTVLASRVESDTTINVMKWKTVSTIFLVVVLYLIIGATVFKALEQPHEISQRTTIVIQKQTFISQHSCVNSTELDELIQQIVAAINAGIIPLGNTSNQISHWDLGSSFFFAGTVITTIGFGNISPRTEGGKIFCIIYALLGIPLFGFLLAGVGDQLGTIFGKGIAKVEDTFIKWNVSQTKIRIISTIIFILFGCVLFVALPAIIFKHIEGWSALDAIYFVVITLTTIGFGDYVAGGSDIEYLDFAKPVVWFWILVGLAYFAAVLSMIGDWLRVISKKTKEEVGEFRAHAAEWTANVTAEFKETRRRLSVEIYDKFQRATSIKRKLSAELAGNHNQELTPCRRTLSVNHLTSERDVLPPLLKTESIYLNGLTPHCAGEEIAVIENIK
In words: Activation of recombinant human TREK1 Y285A mutant expressed in HEK293T cells assessed as increase in K+ current amplitude at 10 uM by whole cell voltage clamp electrophysiological analysis relative to control.

Assay [2] concerns the target T2, Potassium channel subfamily K member 2 (Homo sapiens) (UniProt O95069).
T2 sequence (whole entry): T1 sequence (whole entry) with A285Y
In words: Activation of recombinant human TREK1 expressed in HEK293T cells assessed as increase in K+ current amplitude at 10 uM by whole cell voltage clamp electrophysiological analysis relative to control.

Assay [3] concerns the target T3, Potassium channel subfamily K member 4 (Homo sapiens) (UniProt Q9NYG8).
T3 sequence (whole entry): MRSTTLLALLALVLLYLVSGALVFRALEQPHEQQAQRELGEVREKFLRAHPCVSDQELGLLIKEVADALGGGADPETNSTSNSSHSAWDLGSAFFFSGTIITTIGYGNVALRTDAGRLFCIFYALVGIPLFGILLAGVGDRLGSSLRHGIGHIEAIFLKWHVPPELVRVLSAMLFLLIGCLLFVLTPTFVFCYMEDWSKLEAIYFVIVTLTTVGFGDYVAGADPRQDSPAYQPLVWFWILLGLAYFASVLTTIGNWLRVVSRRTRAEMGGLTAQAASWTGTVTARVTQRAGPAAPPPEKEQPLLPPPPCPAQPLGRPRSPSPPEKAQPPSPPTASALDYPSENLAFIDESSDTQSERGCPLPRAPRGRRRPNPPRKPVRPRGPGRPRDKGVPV
The experiment in a line: Activation of recombinant human TRAAK expressed in HEK293T cells assessed as increase in K+ current amplitude at 10 uM by whole cell voltage clamp electrophysiological analysis relative to control.

Assay [4] has as its system T4, Potassium channel subfamily K member 4 (Homo sapiens), Q9NYG8 [D227Y].
T4 sequence (whole entry): T3 sequence (whole entry) with D227Y
The experiment in a line: Activation of recombinant human TRAAK D227Y mutant expressed in HEK293T cells assessed as increase in K+ current amplitude at 10 uM by whole cell voltage clamp electrophysiological analysis relative to control.

In assay [5] the target is T5, TREK-2 two-pore-domain K+ channel (Mus musculus) (UniProt Q3LS20).
T5 sequence (whole entry): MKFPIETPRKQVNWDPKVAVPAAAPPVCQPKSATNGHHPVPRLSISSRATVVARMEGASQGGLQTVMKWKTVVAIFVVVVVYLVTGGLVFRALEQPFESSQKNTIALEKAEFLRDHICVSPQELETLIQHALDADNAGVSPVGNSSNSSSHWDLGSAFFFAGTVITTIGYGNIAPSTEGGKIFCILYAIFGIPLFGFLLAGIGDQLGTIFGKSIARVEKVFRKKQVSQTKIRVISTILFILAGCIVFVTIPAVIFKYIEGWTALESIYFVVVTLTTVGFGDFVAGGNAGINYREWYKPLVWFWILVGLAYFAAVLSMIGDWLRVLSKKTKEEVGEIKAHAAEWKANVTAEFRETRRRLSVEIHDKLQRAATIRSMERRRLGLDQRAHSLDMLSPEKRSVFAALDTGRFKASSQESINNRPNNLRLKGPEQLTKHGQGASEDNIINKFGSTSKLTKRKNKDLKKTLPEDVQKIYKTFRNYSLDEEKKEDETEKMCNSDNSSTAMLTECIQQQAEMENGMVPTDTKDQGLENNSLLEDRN
The experiment in a line: Activation of recombinant mouse TREK2 expressed in HEK293T cells assessed as increase in K+ current amplitude at 10 uM by whole cell voltage clamp electrophysiological analysis relative to control.

Assay [6] deals with T6, Potassium channel subfamily K member 2 (Homo sapiens), O95069 [K286A].
T6 sequence (whole entry): T1 sequence (whole entry) with A285Y, K286A
The experiment in a line: Activation of recombinant human TREK1 K286A mutant expressed in HEK293T cells assessed as increase in K+ current amplitude at 10 uM by whole cell voltage clamp electrophysiological analysis relative to control.

Regarding `Cc1ccc2nc(-c3ccc(NC(=O)[C@@H]4CC[C@H](C(=O)O)C4)cc3)sc2c1`, the fold change (FC) in assay [1] is 2; in assay [2], 5.7; in assay [3], 2.4 to 2.5; in assay [4], 5.4; in assay [5] it was 4.5; in assay [6] it was 4.9.
